According to patent publication US20200009275A1, “PIGMENT-COUPLED MANNOSYL SERUM ALBUMIN COMPLEX AND LYMPH NODE-PROBING COMPOSITION COMPRISING SAME” (priority 2017, published 2020):

Assay: Absorption peak and molecular extinction coefficient of pigment-coupled MSA
Assay type: physicochemical
Description: The pigment-coupled MSA solution was loaded in a 96-well plate, which was scanned with visible light ranging between 350 nm and 850 nm to measure the absorbance at the peak of absorption spectrum using Varioskan Flash (Thermo Fisher Scientific Inc., Finland) spectrometer. The molecular extinction coefficient was measured by calculating the absorbance per 1 cm length according to Beer-Lambert law.

## brilliant blue R
At absorption peak, per 1 cm, Beer-Lambert law
  ε (molecular extinction coefficient): 54444
Scan 350 nm to 850 nm
  Wavelength (absorption peak): 590 nm
